The target in experiment [1] is Lys-plasminogen (Homo sapiens (Human)) (UniProt P00747).
The target of experiment [2] is human complement protein C3 (human).
Experiment [3] has as its target Glu-plasminogen (Homo sapiens (Human)) (UniProt P00747).
Experiment [4] concerns the target human C3 FRET peptide.
Experiment [5] deals with human C3 FRET peptide. The source holds these as a separate data set.
Experiment [6] has as its target human complement protein C3 (human). The source holds these as a separate data set.

A value given as a limit tells only on which side of the number the result lay.

On to “modified u-PA protease domain F30Y/R35Y/R36H/H37P/R37aQ/V38E/T39Y/Y40F/V41R/Y60bH/T97aI/L97bA/H99Q/C122S/Y149R/M157K (enzyme)”, for which the kcat/Km (M^-1s^-1) of plasminogen activation, indirect chromogenic assay in experiment [1] is under 10 M⁻¹ s⁻¹. Besides, the ED50 80% human plasma (60 min, nM), hemolysis of sensitized sheep erythrocytes in experiment [2] came to 173 nM.

For the substance “modified u-PA protease domain F30Y/R35W/R36H/H37N/V38E/T39Y/Y40F/V41R/Y60bS/T97aE/L97bA/H99Q/C122S/Y149K/M157K (enzyme)”, in experiment [2], the ED50 80% human plasma (60 min, nM), hemolysis of sensitized sheep erythrocytes was found to be 220 nM.

Turning to “modified u-PA protease domain R35W/H37D/R37aP/V38E/T39W/V41R/Y60bA/T97aI/L97bA/H99Q/C122S/Y149R (enzyme)”, the kcat/Km (M^-1s^-1) of plasminogen activation, indirect chromogenic assay in experiment [1] was under 10 M⁻¹ s⁻¹. In addition, in experiment [2], the ED50 80% human plasma (60 min, nM), hemolysis of sensitized sheep erythrocytes stood at 196 nM.

Regarding “modified u-PA V38D/L97bA/H99Q/C122S (enzyme)”, the kcat/KM (M^-1s^-1) of Glu-plasminogen activation in experiment [3] was found to be 1380 M⁻¹ s⁻¹.

As for “modified u-PA protease domain F30Y/V38D/Y40H/V41R/L97bA/H99Q/C122S/M157K (enzyme)”, the kcat/KM (M^-1s^-1) of Glu-plasminogen activation in experiment [3] amounted to 459 M⁻¹ s⁻¹. Moreover, the kcat/Km (M^-1s^-1) of plasminogen activation, indirect chromogenic assay in experiment [1] was found to be 403 M⁻¹ s⁻¹. In addition, the ED50 80% human plasma (60 min, nM), hemolysis of sensitized sheep erythrocytes in experiment [2] was determined as 1030 nM.

With “modified u-PA protease domain F30Y/R35W/R36H/H37P/V38E/T39Y/Y40F/V41R/Y60bS/T97aE/L97bA/H99Q/C122S/Y149K/M157K (enzyme)”, the ED50 80% human plasma (60 min, nM), hemolysis of sensitized sheep erythrocytes in experiment [2] came out at 185 nM.

With “modified u-PA protease domain F30Y/R35Y/R36H/H37K/V38E/T39F/Y40F/V41R/T97aI/L97bA/H99Q/C122S/Y149R/M157K (enzyme)”, in experiment [1], the kcat/Km (M^-1s^-1) of plasminogen activation, indirect chromogenic assay is under 10 M⁻¹ s⁻¹. For the same substance, the ED50 80% human plasma (60 min, nM), hemolysis of sensitized sheep erythrocytes in experiment [2] was determined as 227 nM.

Consider “modified u-PA protease domain R35W/H37P/R37aN/V38E/T39Y/V41R/D60aP/Y60bL/T97aI/L97bA/H99Q/C122S/Y149R (enzyme)”, for which, in experiment [2], the ED50 80% human plasma (60 min, nM), hemolysis of sensitized sheep erythrocytes worked out at 318 nM.

Regarding “modified u-PA protease domain R35Q/H37Y/R37aE/V38E/T39Y/V41R/D60aT/Y60bT/T97aI/L97bA/H99Q/C122S/Y149R (enzyme)”, the kcat/Km (M^-1s^-1) of plasminogen activation, indirect chromogenic assay in experiment [1] was under 10 M⁻¹ s⁻¹. The ED50 80% human plasma (60 min, nM), hemolysis of sensitized sheep erythrocytes in experiment [2] is 253 nM.

In the case of “modified u-PA C[4]S/F30Y/R35W/R36H/H37E/V38E/T39W/Y40H/V41R/Y60bH/T97aI/L97bA/H99Q/C122S/Y149R/M157K/Q192A (enzyme)”, the kcat/KM (M^-1s^-1) of Glu-plasminogen activation in experiment [3] is 0.991 M⁻¹ s⁻¹.

In the case of “modified u-PA protease domain F30Y/R35W/R36H/H37D/V38E/T39Y/Y40F/V41R/T97aI/L97bA/H99Q/C122S/Y149R/M157K (enzyme)”, the ED50 80% human plasma (60 min, nM), hemolysis of sensitized sheep erythrocytes in experiment [2] was determined as 195 nM.

“wild type u-PA (protease domain) with C122S (enzyme)”: the kcat/KM (M^-1s^-1) of Glu-plasminogen activation in experiment [3] was found to be 22800 M⁻¹ s⁻¹. In addition, in experiment [1], the kcat/Km (M^-1s^-1) of plasminogen activation, indirect chromogenic assay is 15400 M⁻¹ s⁻¹. For the same substance, the ED50 80% human plasma (60 min, nM), hemolysis of sensitized sheep erythrocytes in experiment [2] was over 6000 nM.

“modified u-PA protease domain R35Q/H37Y/R37aE/V38E/T39Y/V41R/D60aP/Y60bQ/T97aI/L97bA/H99Q/C122S/Y149R (enzyme)”: in the experiment with human C3 FRET peptide [4], the Enzyme specific activity (nmol/min/nmol), Human C3 FRET Peptide assay (nmol/min/nmol) was 19.7.

In the experiment with human C3 FRET peptide [5], Fc-u-PA (SEQ ID NO: 987) (Fc fusion) showed an Activity (nM EDANS/min/µL sample), expi293 supernatant on 40 µM human C3 FRET peptide (nM EDANS/min/µL sample) of -0.1.

Take “modified u-PA protease domain F30Y/R35Q/R36H/H37G/R37aE/V38E/T39F/Y40F/V41R/D60aP/Y60bS/T97aI/L97bA/H99Q/C122S/Y149R/M157K (enzyme)”: the ED50 80% human plasma (60 min, nM), hemolysis of sensitized sheep erythrocytes in experiment [2] amounted to 220 nM.

In experiment [6], “modified u-PA polypeptide (protease domain) containing the replacements R35Q/H37Y/R37aE/V38E/T39Y/V41R/D60aP/Y60bQ/T97aI/L97bA/H99Q/C122S/Y149R (enzyme)” had an EC50 for cleavage of hC3 (residual intact hC3 by AlphaScreen, 1 hour at 37 C) of 19 nM.

For the substance “modified u-PA protease domain R35W/R36H/H37N/V38E/T39F/Y40F/V41R/T97aI/L97bA/H99Q/C122S/Y149R/M157K/Q192H (enzyme)”, the ED50 80% human plasma (60 min, nM), hemolysis of sensitized sheep erythrocytes in experiment [2] worked out at 208 nM.

For “modified u-PA protease domain F30Y/R35W/R36H/H37E/V38E/T39W/Y40H/V41R/Y60bQ/T97aE/L97bA/H99Q/C122S/Y149K/M157K (enzyme)”, the kcat/Km (M^-1s^-1) of plasminogen activation, indirect chromogenic assay in experiment [1] is under 10 M⁻¹ s⁻¹. Also, in experiment [2], the ED50 80% human plasma (60 min, nM), hemolysis of sensitized sheep erythrocytes worked out at 257 nM.

(Values after US12331334B2.)
